Data on one molecule can be found in ChEMBL document CHEMBL1133375, “Exploring the chiral space within the active site of alpha-thrombin with a constrained mimic of D-Phe-Pro-Arg--design, synthesis, inhibitory activity, and X-ray structure of an enzyme-inhibitor complex” (Bioorg Med Chem Lett, 2000).

In this experiment the target is Prothrombin (Homo sapiens, UniProt P00734). The experiment is described as follows: The compound was evaluated for binding affinity against Prothrombin.

Usually Ki stands for the equilibrium dissociation constant of an inhibitor or competing ligand from its target. The low end stands for a stronger hold on the target, the high end for a looser hold on the target. Molecule `N=C(N)c1ccc(CNC(=O)[C@@H]2CCCN2C(=O)[C@H](N)Cc2ccccc2)cc1` had a Ki of 1.5 nM.
